Laboratory results reported in patent US9492453B2 (priority 2007, dated 2016).

What follows are compounds tested on PKB (Akt). Conditions: read-out: Cellular PKB Mean IC50; MDA-MB-468 cells, phosphorylation of Serine-9 of GSK-3β, 2 hours incubation.
Work on `CC[C@H](NC(=O)C1(N)CCN(c2ncnc3[nH]ccc23)CC1)c1ccc(Cl)cc1` [Example 3A, (S)-4-amino-N-(1-(4-chlorophenyl)propyl)-1-(7H-pyrrolo[2,3-d]pyrimidin-4-yl)piperidine-4-carboxamide] yielded an IC50 of 110 nM.
Compound `CC[C@@H](NC(=O)C1(N)CCN(c2ncnc3[nH]ccc23)CC1)c1ccc(Cl)cc1` [Example 3B, (R)-4-amino-N-(1-(4-chlorophenyl)propyl)-1-(7H-pyrrolo[2,3-d]pyrimidin-4-yl)piperidine-4-carboxamide] has an IC50 of over 3100 nM.
`NC1(C(=O)N[C@@H](CCCO)c2ccc(Cl)cc2)CCN(c2ncnc3[nH]ccc23)CC1` [Example 7A, (S)-4-amino-N-(1-(4-chlorophenyl)-4-hydroxybutyl)-1-(7H-pyrrolo[2,3-d]pyrimidin-4-yl)piperidine-4-carboxamide] was tested, and the IC50 was 100 nM.
`NC1(C(=O)N[C@H](CCCO)c2ccc(Cl)cc2)CCN(c2ncnc3[nH]ccc23)CC1` [Example 7B, (R)-4-amino-N-(1-(4-chlorophenyl)-4-hydroxybutyl)-1-(7H-pyrrolo[2,3-d]pyrimidin-4-yl)piperidine-4-carboxamide] was tested, and the IC50 was over 3100 nM.
